# Source: PubChem BioAssay
# Most compounds without a hit are left out; they make up all but 2.3% or so of the library.
# Rango release inh: prevents RanGTP from dissociating the Rango-importin beta complex; O95149+P62826; Biochemical FRET Rango-importin beta, RanGTP-induced dissociation; Potency, µM (titrated, usually from 46.1 µM), for the others: top-dose activity change, negative = inhibition; actives 0.071% (n = 340,000); calls by dose curve; note: % of control where 0% means no effect; nearly all actives have a fitted effect of over 45% in size
#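 Quantitative HTS using a FRET biosensor: 0.1 uM Rango, 0.25 uM importin beta, 0.6 uM Ran, 2 mM GTP, 0.2 uM RCC1 final, PBS with DTT, Tween-20 and BSA. Post-read taken 45 min after Ran addition.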
# A549 tox: kills or reduces viability of A549 cells in Nrf2 counter-screen. A549 ARE-Fluc cells, CellTiter-Fluor viability, 18-24 h. Potency, µM (titrated, usually from 46 µM), without a hit: top-dose activity change, negative = cytotoxicity, actives largely listed as inhibitors. actives 0.16% (n = 390,000). AID 504648; note: % is set by controls: 0 for no effect and ±100 for the full control effect
#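 A549 ARE_Fluc cells in 5% FBS OPTI-MEM were exposed to compounds in concentration-response for 18-24 h at 37 deg C. Viability was read by CellTiter-Fluor fluorescence (Ex 405/Em 525) after 30 min, before the luciferase read.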
# Rango-impB inh: prevents formation of the Rango-importin beta complex; Rango CFP/YFP FRET sensor + importin beta, 45 min; Potency, µM (titrated, usually from 92.2 µM), inactives show at the highest dose inhibition of complex formation; actives 0.031% (n = 340,000); calls by dose curve;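 note: 0% = DMSO wells and 100% = buffer wells lacking importin beta; nearly all actives have a fitted effect of over 15% in size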
#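 FRET biosensor Rango (snurportin 1 IBB between N-terminal EYFP and C-terminal Cerulean), 50 nM in PBS/1 mM DTT/0.02% Tween-20/0.1% BSA, preincubated 5 min RT with compound; 0.125 microM importin beta added, 45 min RT, CFP/YFP FRET ratio read.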
# Nrf2 inh: inhibitors of Nrf2 signaling | Potency, µM (top dose mostly 46 µM), without a hit: at the highest dose activity change, negative = inhibition, actives largely listed as inhibitors | A549 ARE-Fluc reporter, luciferase luminescence, 18-24 h | actives 2.1% (n = 360,000) | AID 504444; note: % is set by controls: 0 for no effect and ±100 for the full control effect; nearly all actives have a fitted effect of over 60% in size
#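 Two sequential reads on A549 ARE_Fluc cells exposed to compound for 18-24 h: a CellTiter-Fluor fluorescence read for viability, then a luciferase luminescence read for Nrf2/ARE activity.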
# Nrf2 ARE act: Nrf2 pathway activation | AREc32 ARE-luciferase reporter (MCF7-derived line), luminescence, 24 h | Potency, µM (series often up to 46.1 µM), without a hit: at the highest dose activation, usual class: activators | actives 0.31% (n = 410,000) | AID 624171; note: % of control where 0% means no effect; nearly all actives have a fitted effect of over 65% in size
#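 AREc32 cells carrying an ARE-driven firefly luciferase reporter were seeded at 1000 cells/well in OPTI-MEM with 5% FBS, then exposed to compound for 24 hr at 37 deg C. Luminescence was read with Steady-Glo after 30 min at RT.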
# * = called active by the depositor; ? = inconclusive; . = no result. Unless noted, calls come from the whole dose curve; as a rule, active = well fitted curve in the direction sought with a large enough effect; inconclusive = small, poorly fitted or top-dose-only effect, or another doubt; inactive = no such curve, though single readings can be large; an effect the other way counts as inactive or inconclusive. Potency is the fitted concentration of half-maximal effect.
# Order of results: Rango release inh	A549 tox	Rango-impB inh	Nrf2 inh	Nrf2 ARE act
Cc1[nH]c2ccccc2c1/C=N/NC(=S)NC(C)C
 : 7%	?	?	15µM*	5%
COc1cccc(OCC(=O)NCCS(=O)(=O)N2CCN(c3ccccc3F)CC2)c1
 : .	0%	.	.	3%
O=c1[nH]c(C2CCN(S(=O)(=O)c3ccc(C(F)(F)F)cc3)CC2)nc2c1nnn2Cc1cccc(F)c1
 : 19%	-15%	-1%	?	0%
O=c1[nH]c(C2CCN(S(=O)(=O)c3ccccc3C(F)(F)F)CC2)nc2c1nnn2Cc1cccc(F)c1
 : 26%	?	-3%	23µM*	2%
O=c1[nH]c(C2CCN(S(=O)(=O)c3cccc(Cl)c3)CC2)nc2c1nnn2Cc1ccccc1
 : -13%	?	0%	15µM*	5%
CCC1CCCCN1C(=O)CSc1nc2c([nH]c3ccccc32)c(=O)n1-c1cccc(OC)c1 (centres undefined)
 : .	-27%	.	.	1%
COc1ccccc1/C=N/OCc1ccc(C#N)cc1
 : -4%	-5%	6%	18µM*	0%
Cc1ccc(S(=O)(=O)NCCCNS(=O)(=O)c2ccccc2[N+](=O)[O-])cc1
 : -5%	3%	1%	18µM*	5%
Cc1ccc(CNC(=O)c2ccc3c(O)c(S(=O)(=O)c4ccc(Cl)cc4)c(=O)[nH]c3c2)cc1
 : .	4%	.	10%	1%
Cc1cc(Nc2cccc(Cl)c2)nc2ccc(NC(=O)Cc3ccc(Cl)cc3)cc12
 : .	?	.	23µM*	-2%
COc1ccc(Cl)cc1C(=O)Nc1ccc2nc(Nc3cccc(Cl)c3)cc(C)c2c1
 : .	-2%	.	5%	0%
COc1ccc(CC(=O)Nc2ccc3nc(Nc4cccc(Cl)c4)cc(C)c3c2)cc1OC
 : .	-8%	.	16µM*	0%
C=C1CCN(C(Cc2ccccc2)C(=O)NCc2ccc(Cl)c(Cl)c2)S(=O)(=O)c2ccccc21 (centres undefined)
 : .	8%	.	-26%	.
Cc1ccc(NC(=O)c2oc3ccc(S(=O)(=O)N4CCCCCC4)cc3c2C)c(C)c1
 : .	15%	.	.	0%
COc1cc(NC(=O)C(CC(C)C)NS(=O)(=O)c2ccc3c(c2)oc(=O)n3C)c(C(=O)O)cc1OC (centres undefined)
 : .	-1%	.	4%	0%
CCc1ccc(C(=O)N2CCC(c3nc(-c4ccc(S(=O)(=O)N5CCCC5)cc4)no3)CC2)cc1
 : .	-19%	.	12µM*	-1%
COc1ccc(-c2csc(NC(=O)CSCc3c(C)noc3C)n2)c(OC)c1
 : 3%	-15%	3%	16µM*	6%
COc1ccc(-c2csc(NC(=O)CSCC(=O)Nc3cc(C)on3)n2)cc1
 : 6%	0%	-1%	5%	6%
Cc1nnc(Sc2cc(NCCCO)c([N+](=O)[O-])c3nonc23)s1
 : 0%	1%	-4%	1%	-3%
Cc1nnc(Sc2cc(NCCO)c([N+](=O)[O-])c3nonc23)s1
 : -26%	26µM*	-2%	?	0%
CC(C)C[C@H](NC(=O)OC(C)(C)C)C(=O)N/N=C/c1ccc2nccnc2c1
 : ?	10%	1%	-24%	0%
CC(C)C[C@H](NC(=O)OC(C)(C)C)C(=O)N/N=C/C1=Cc2ccccc2OC1C (some centres undefined)
 : 20%	?	-4%	21µM*	3%
Cc1ccc(S(=O)(=O)N2C[C@H]3N(C(=O)OC(C)C)N(C(=O)OC(C)C)C[C@H](OC(=O)Nc4cccs4)[C@@]3(O)C2)cc1
 : .	.	.	.	8%
Cc1nn(-c2ccccc2)c(Cl)c1C(=O)N1CCN(c2ncnc3c2cnn3-c2ccccc2)CC1
 : 15%	?	1%	21µM*	-1%
CCOC(=O)C1CCN(c2ncnc3c2cnn3-c2ccc(Cl)cc2)CC1
 : 15%	0%	2%	2.9µM*	-2%
Cc1ccc(C)c(N2CCN(C(=O)c3cn(CC(C)C)c(=O)c4c3c3ccccc3n4C)CC2)c1
 : .	-17%	.	?	0%
CC1C(=O)Nc2ccc(S(=O)(=O)N3CCN(c4cccc(C(F)(F)F)c4)CC3)cc2NC1=O (centres undefined)
 : -2%	?	3%	8.2µM*	0%
CCCCC(CC)CN=C(N)NC(N)=NCCCCCCN=C(N)NC(N)=NCC(CC)CCCC (centres undefined)
 : ?	?	58µM*	?	-4%
CC1(C)CC[C@]2(C(=O)O)CC[C@]3(C)C(=CC[C@@H]4[C@@]5(C)CC[C@H](O[C@@H]6O[C@H](C(=O)O)[C@@H](O)[C@H](O[C@@H]7OC[C@H](O)[C@H](O)[C@H]7O)[C@H]6O)C(C)(C)[C@@H]5CC[C@]43C)[C@@H]2C1
 : -15%	?	-1%	21µM*	-3%
CC1(C)CC[C@]2(C(=O)O[C@@H]3O[C@H](CO)[C@@H](O)[C@H](O)[C@H]3O)CC[C@]3(C)C(=CCC4[C@@]5(C)CC[C@H](O[C@@H]6O[C@H](C(=O)O)[C@@H](O[C@H]7OC[C@@H](O)[C@@H](O)[C@@H]7O)[C@H](O)[C@H]6O)C(C)(C)C5CC[C@]43C)[C@@H]2C1 (some centres undefined)
 : 13%	-2%	0%	14%	0%

# Continued, overlapping the part above by 3 compounds.
# Order of results: Rango release inh	A549 tox	Rango-impB inh	Nrf2 inh	Nrf2 ARE act
CCCCC(CC)CN=C(N)NC(N)=NCCCCCCN=C(N)NC(N)=NCC(CC)CCCC (centres undefined)
 : ?	?	58µM*	?	-4%
CC1(C)CC[C@]2(C(=O)O)CC[C@]3(C)C(=CC[C@@H]4[C@@]5(C)CC[C@H](O[C@@H]6O[C@H](C(=O)O)[C@@H](O)[C@H](O[C@@H]7OC[C@H](O)[C@H](O)[C@H]7O)[C@H]6O)C(C)(C)[C@@H]5CC[C@]43C)[C@@H]2C1
 : -15%	?	-1%	21µM*	-3%
CC1(C)CC[C@]2(C(=O)O[C@@H]3O[C@H](CO)[C@@H](O)[C@H](O)[C@H]3O)CC[C@]3(C)C(=CCC4[C@@]5(C)CC[C@H](O[C@@H]6O[C@H](C(=O)O)[C@@H](O[C@H]7OC[C@@H](O)[C@@H](O)[C@@H]7O)[C@H](O)[C@H]6O)C(C)(C)C5CC[C@]43C)[C@@H]2C1 (some centres undefined)
 : 13%	-2%	0%	14%	0%
CCc1noc(C)c1C(=O)Oc1ccc(N(C)S(=O)(=O)c2ccccc2)cc1
 : -24%	-9%	3%	16µM*	3%
Cc1cccc(NC(=O)C(=O)NNC(=O)c2ccc(C(C)(C)C)cc2)c1
 : 9%	6.5µM*	3%	?	2%
CC1CCCN(C(=O)N2c3ccccc3Sc3ccccc32)C1 (centres undefined)
 : 8%	?	-1%	16µM*	0%
CCOc1ccc(NC(=O)CSc2nc3nc(C)c(Cc4ccccc4)c(C)n3n2)cc1
 : .	0%	.	.	0%
Cc1noc(C)c1-c1ccc2ncnc(NCc3ccccc3F)c2c1
 : .	3%	.	21µM*	.
CC(Nc1ncnc2ccccc12)c1ccccc1 (centres undefined)
 : -14%	-8%	-4%	?	2%
Cc1noc(C)c1-c1ccc2ncnc(NC(C)c3ccccc3)c2c1 (centres undefined)
 : .	6%	.	23µM*	.
Cc1noc(C)c1-c1ccc2ncnc(NCc3cccc(-c4ccccc4)c3)c2c1
 : .	-14%	.	7.3µM*	.
CCOc1ccccc1CNc1ncnc2ccc(-c3c(C)noc3C)cc12
 : -17%	0%	0%	16µM*	26%
Cc1cccc(CNC(=O)c2cccc(NC(=O)N3CCSc4ncccc43)c2)c1
 : .	-1%	.	?	0%
CCCNC(=O)CCc1c(C)nc2nc(CNC(=O)c3ccccc3)nn2c1C
 : .	-4%	.	6%	0%

# Full records from above:
# Listed for `CCc1noc(C)c1C(=O)Oc1ccc(N(C)S(=O)(=O)c2ccccc2)cc1` → Rango release inh: -24%; A549 tox: -9%; Rango-impB inh: 3%; Nrf2 inh: 16µM*; Nrf2 ARE act: 3%
# Listed for `Cc1noc(C)c1-c1ccc2ncnc(NCc3cccc(-c4ccccc4)c3)c2c1` → Rango release inh: .; A549 tox: -14%; Rango-impB inh: .; Nrf2 inh: 7.3µM*; Nrf2 ARE act: .
